## Ab-14 light chain CDR variants: yeast mating affinities

Data: MIT Lincoln Laboratory AlphaSeq set, Engelhart et al. 2022, doi:10.1038/s41597-022-01779-4, as distributed in FLAb.

All variants were tested on one target, the spike HR2 peptide PDVDLGDISGINAS (SARS-CoV-2).

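Variants in AAYL50 differ from the parent at up to three CDR positions; double and triple changes were sampled at random. Affinity was read by AlphaSeq, a pooled yeast mating assay with surface-displayed partners. Binding brings cells together so that they mate, and sequencing counts the barcode pairs among the diploids. Each replicate has its own calibration line, from reference interactions of the BCL2 family. The assay was run in three technical replicates.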

Each scFv is VH, the linker GGGGSGGGGSGGGGS, VL, as in the parent Ab-14, and differs from it in the CDRs of the light chain only.
VH: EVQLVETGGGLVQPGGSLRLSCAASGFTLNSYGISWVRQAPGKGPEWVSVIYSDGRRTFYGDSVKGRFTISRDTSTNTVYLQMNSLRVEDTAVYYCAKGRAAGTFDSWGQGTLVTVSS
VL: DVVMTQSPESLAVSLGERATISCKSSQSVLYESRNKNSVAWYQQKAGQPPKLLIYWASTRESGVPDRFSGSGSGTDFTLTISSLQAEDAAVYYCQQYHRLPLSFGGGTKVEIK

Variants are written as CDR1, CDR2 and CDR3 of the light chain (limits as in the source). Parent: KSSQSVLYESRNKNSVA, WASTRES, QQYHRLPLS.
Affinities are written as log10 Kd with Kd in nM; a lower number is a better binder.
Where no diploid with the target was found in that replicate, the entry reads "n.d.": below detection, most likely a poor binder, though not proof of it.
Three control strains display no target. For library AAYL50, 18% of the pairings with them gave a signal, with a median of 4.19 and one signal in twenty below 2.99, so weak values seen in few replicates may be background. For each scFv, signals with the empty controls are counted beside the result, with their mean in brackets.
In this assay the parent's reference entry averaged 0.65; its copy inside this library read 1.68.

| CDR-L1 | CDR-L2 | CDR-L3 | replicates, log10 nM | signal with controls |
|---|---|---|---|---|
| KSSQSVLYESMNKNSVA | WAPTRES | LQYHRLPLS | n.d. / n.d. / n.d. | 0 of 9 |
| KSSQSVLYESRWKNSVA | WASTRES | QQYCRLFLS | 1.35 / 1.26 / 1.57 | 1 of 9 (2.81) |
| KSSQSVLYESRNKQSVL | WASTRES | QQYHRLPLS | 4.99 / n.d. / 5.74 | 1 of 9 (4.10) |
| KASQSVLYESRNKNSVH | WASTRES | KQYHRLPLS | n.d. / n.d. / n.d. | 0 of 9 |
| KSSQSVLNESRNLNSVA | WASTRES | QQYHRLPLS | 0.43 / 0.79 / 0.48 | 4 of 9 (4.55) |
| KSSMSVLYPSRNKNSMA | WASTRES | QQYHRLPLS | 0.99 / 0.84 / 1.01 | 0 of 9 |
| KSSQSVLEESRNKNSVA | HASPRES | QQYHRLPLS | n.d. / 2.79 / n.d. | 1 of 9 (3.88) |
| KASQSVLYESRNKNSVA | WASTRES | QQYHRQNLS | n.d. / n.d. / n.d. | 2 of 9 (3.97) |
| KSSQSVLYESRNKNKVA | WASTREG | QQYHILPLS | n.d. / n.d. / n.d. | 1 of 9 (5.18) |
| KSSMSHLYESRNKNSVA | WASARES | QQYHRLPLS | 2.08 / 2.20 / 2.37 | 3 of 9 (5.06) |
| KSSQSVPYESRNKNSVA | WASTRES | HQRHRLPLS | n.d. / n.d. / 4.12 | 0 of 9 |
| KSSQSVLYESRNKNSVA | WASTRRS | QTPHRLPLS | n.d. / n.d. / n.d. | 0 of 9 |
| KSSQSVLYESRNKNSVW | WASTREV | QQYHRLSLS | n.d. / 4.97 / n.d. | 1 of 9 (3.02) |
| KMSHSVLYESRNKNSVA | WASTRES | QQYHRLPLS | 2.56 / 2.24 / 2.39 | 4 of 9 (4.40) |
| KSSQSVLYESRNKSHVA | WASTRES | QQYHALPLS | 3.59 / 3.10 / n.d. | 2 of 9 (4.87) |
| RSSQSVLYESRNKNSVA | AASHRES | QQYHRLPLS | 0.98 / 1.03 / 0.95 | 2 of 9 (5.35) |
| KSSQSVLTESRNKNSVA | WASTRES | QQYHRLWLS | 0.27 / 0.50 / 0.44 | 0 of 9 |
| KSSWSVLYESRNKNSVA | WASTRYS | QQYHRLPVS | 3.36 / 2.59 / 2.30 | 1 of 9 (4.05) |
| KSSQSVLYEDRNKNPVA | WASTRES | QQYHRLPLS | 1.24 / 1.35 / 1.44 | 4 of 9 (4.37) |
| KSSHFVLYESRNKNSVA | WASTRES | QQYPRLPLS | n.d. / 4.82 / 5.20 | 0 of 9 |
| KSSQSVLYESRNYNAVA | WMSTRES | QQYHRLPLS | 2.76 / 1.89 / 2.18 | 2 of 9 (2.92) |
| KSSQSGLYESRNKNSVA | WASYRES | QQYHRLPLS | 2.12 / 2.17 / 2.30 | 5 of 9 (5.00) |
| PSSQSVLYESRSKNSVA | WASTRES | QQYHRLCLS | n.d. / n.d. / n.d. | 3 of 9 (4.03) |
| KSSQSVLYENRNKNSVA | WASTRES | QQYHRLPLW | 1.95 / 2.05 / 1.81 | 2 of 9 (4.46) |
| KSSQSVLYESRNKRSVA | WASTAES | QQYHRLPLS | 3.94 / 3.76 / n.d. | 1 of 9 (5.00) |
| KSSQSVLCESRNKNSVA | WHSTRES | QQYHTLPLS | 2.09 / 2.14 / 2.07 | 3 of 9 (4.47) |
| KSSQSVLYESRNKVSVA | WASTRES | QQYHRLDLN | 4.81 / n.d. / 3.27 | 2 of 9 (4.18) |
| KSSQSVLYESINKNSVA | WASTRET | RQYHRLPLS | n.d. / n.d. / n.d. | 0 of 9 |
| KSSQSVLYESRNKNSVI | WASTPES | QQYHRLPLS | n.d. / n.d. / n.d. | 3 of 9 (3.25) |
| KRSQQVLYESRNKNSVA | WASTRES | QQYHRLQLS | 2.54 / 2.91 / 2.90 | 2 of 9 (4.73) |
| KSSQSELYESRNGNSVA | WASTRIS | QQYHRLPLS | 1.64 / 1.60 / 1.78 | 4 of 9 (4.40) |
| KSSQSVLYESKNKNSVA | WASTRES | QVYHRLPLS | 0.48 / 0.77 / 0.55 | 0 of 9 |
| KSSQSVLYESRNKNSVA | WASTRES | SQYHRLPLS | 1.62 / 0.66 / 2.54 | 0 of 9 |
| KSSWSVLIESRNKNSVA | WASTRES | EQYHRLPLS | n.d. / n.d. / 3.53 | 3 of 9 (5.24) |

For reference, 3 entries of the list once more:

{"CDR-L1": "KSSQSVLYESRNKSHVA", "CDR-L2": "WASTRES", "CDR-L3": "QQYHALPLS", "replicates, log10 nM": "3.59 / 3.10 / n.d.", "signal with controls": "2 of 9 (4.87)"}
{"CDR-L1": "PSSQSVLYESRSKNSVA", "CDR-L2": "WASTRES", "CDR-L3": "QQYHRLCLS", "replicates, log10 nM": "n.d. / n.d. / n.d.", "signal with controls": "3 of 9 (4.03)"}
{"CDR-L1": "KSSQSVLYESRNKQSVL", "CDR-L2": "WASTRES", "CDR-L3": "QQYHRLPLS", "replicates, log10 nM": "4.99 / n.d. / 5.74", "signal with controls": "1 of 9 (4.10)"}